According to patent US8377943B2, “2,4-diaminopyrimidine derivates as PTK2-inhibitors for the treatment of abnormal cell growth” (Boehringer Ingelheim International GmbH, priority 2008, dated 2013):
pEC50, pIC50: −log10 of the molar value.

Amino acid sequences for entries named in this document (tags omitted).
UniProt Q05397, whole entry: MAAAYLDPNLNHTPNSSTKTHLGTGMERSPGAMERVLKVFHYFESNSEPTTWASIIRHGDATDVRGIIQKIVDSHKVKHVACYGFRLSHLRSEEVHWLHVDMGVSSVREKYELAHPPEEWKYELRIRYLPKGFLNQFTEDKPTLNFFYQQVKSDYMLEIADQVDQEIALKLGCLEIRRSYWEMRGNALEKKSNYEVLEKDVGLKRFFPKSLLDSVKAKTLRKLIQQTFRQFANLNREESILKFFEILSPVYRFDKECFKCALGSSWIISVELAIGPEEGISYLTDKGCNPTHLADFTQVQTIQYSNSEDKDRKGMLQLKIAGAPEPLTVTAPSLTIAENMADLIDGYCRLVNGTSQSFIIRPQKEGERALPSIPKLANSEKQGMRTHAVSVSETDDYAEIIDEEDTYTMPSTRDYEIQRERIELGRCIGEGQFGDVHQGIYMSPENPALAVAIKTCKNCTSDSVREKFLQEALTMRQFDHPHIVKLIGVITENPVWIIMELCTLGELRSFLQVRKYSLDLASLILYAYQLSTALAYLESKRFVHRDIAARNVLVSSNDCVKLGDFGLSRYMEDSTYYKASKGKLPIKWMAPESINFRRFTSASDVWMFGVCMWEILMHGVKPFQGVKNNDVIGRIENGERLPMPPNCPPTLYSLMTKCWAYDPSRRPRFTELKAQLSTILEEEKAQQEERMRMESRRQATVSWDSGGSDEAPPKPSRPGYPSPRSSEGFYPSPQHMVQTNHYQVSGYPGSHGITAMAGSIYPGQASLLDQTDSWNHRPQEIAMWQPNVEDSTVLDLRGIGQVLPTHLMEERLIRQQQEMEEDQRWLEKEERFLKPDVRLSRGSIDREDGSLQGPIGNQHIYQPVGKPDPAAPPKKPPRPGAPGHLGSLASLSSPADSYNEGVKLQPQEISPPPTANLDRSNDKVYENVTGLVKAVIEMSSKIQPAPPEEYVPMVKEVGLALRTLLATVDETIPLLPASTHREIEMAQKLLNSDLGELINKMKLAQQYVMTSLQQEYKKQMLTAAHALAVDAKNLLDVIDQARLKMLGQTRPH

Tests used:
PTK2 = PTK2 (Homo sapiens, UniProt Q05397); experiment: PTK2 Enzyme Test (DELFIA assay, poly-Glu-Tyr substrate); details: read-out: PTK2 IC50; active PTK2 enzyme, 50 μM ATP in ATP Mix, 1 h pre-incubation
[1] = biological target: PTK2-phosphorylation at tyrosine 397 (pY397) (Homo sapiens, UniProt Q05397); experiment: Phospho-PTK2 (pY397) Assay in PC-3 cells; details: read-out: PC3pPTK2 Y397 EC50; PC-3 prostate carcinoma cells, 2 h incubation

Q: `COc1cc(C(=O)N[C@H]2CCN(C)C[C@@H]2F)c(F)cc1Nc1ncc(C(F)(F)F)c(NCc2ccc(C)cc2N(C)S(C)(=O)=O)n1` was tested. Which pIC50 (PTK2) did it give?
A: The pIC50 was 8.52.

Q: What about the pEC50 [1] of the same compound?
A: Its pEC50 is 9.49.
